Experimental data: BindingDB's records for doi:10.1021/jm9705519 (National Institute On Drug Abuse-Intramural Research Program, 1998)

What was measured:
[1] = Dissociation constant(KD) of [3H]WIN-35428 at saturation in rat caudate-putamen tissue pre-incubated in buffer at 100 nM (Dopamine transporter)
[2] = Dissociation constant(KD) of [3H]WIN-35428 at saturation in rat caudate-putamen tissue pre-incubated in buffer (Dopamine transporter)

CC1CN(CCCn2c3ccccc3c3ccccc32)CC(C)N1CCCCCCN=C=S (configuration not stated) [9-{3-[4-(6-Isothiocyanato-hexyl)-3,5-dimethyl-piperazin-1-yl]-propyl}-9H-carbazole]
Kd [1]: 7.6 nM | Kd [2]: 17 nM
